Assay results from patent publication US20240360179A1, “STAPLED PEPTIDES AND METHODS THEREOF” (FOG PHARMACEUTICALS, INC., priority 2021, published 2024).

The chains behind the UniProt entries cited, without tags or fusion partners.
full-length beta-catenin (Uniprot ID P35222) (human), UniProt P35222, whole entry: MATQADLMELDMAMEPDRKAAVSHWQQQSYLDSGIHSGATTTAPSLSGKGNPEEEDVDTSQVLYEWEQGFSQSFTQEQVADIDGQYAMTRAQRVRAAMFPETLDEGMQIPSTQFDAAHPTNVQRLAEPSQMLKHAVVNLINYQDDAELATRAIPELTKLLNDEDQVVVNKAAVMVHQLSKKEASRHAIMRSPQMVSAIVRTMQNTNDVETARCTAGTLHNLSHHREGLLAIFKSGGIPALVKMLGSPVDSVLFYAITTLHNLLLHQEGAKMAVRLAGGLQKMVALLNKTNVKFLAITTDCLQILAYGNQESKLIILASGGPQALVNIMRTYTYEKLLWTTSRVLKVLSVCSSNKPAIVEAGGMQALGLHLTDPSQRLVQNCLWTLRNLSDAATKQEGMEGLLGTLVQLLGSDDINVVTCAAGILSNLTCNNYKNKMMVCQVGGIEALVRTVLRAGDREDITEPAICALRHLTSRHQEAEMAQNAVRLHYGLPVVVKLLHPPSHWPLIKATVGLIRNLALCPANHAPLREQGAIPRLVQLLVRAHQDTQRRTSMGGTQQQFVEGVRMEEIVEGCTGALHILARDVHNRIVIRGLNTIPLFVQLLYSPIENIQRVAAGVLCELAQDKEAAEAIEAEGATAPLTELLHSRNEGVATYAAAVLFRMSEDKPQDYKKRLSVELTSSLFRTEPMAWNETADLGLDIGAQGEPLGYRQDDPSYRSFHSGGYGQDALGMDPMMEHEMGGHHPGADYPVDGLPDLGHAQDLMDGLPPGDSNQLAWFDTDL

Target: full-length beta-catenin (Uniprot ID P35222) (human)
Experiment: competition fluorescence polarization; displacement of 5FAM-TCF4(10-53) from full-length beta-catenin

Row | Substance | IC50 [nM]
1 | C-1: Ac-PL3-Asp-Npg-B5-Asp-3COOHF-Ala-Ala-Phe-Leu-PyrS2-2F3MeF-BztA-Gln-NH2 (peptide) | 13
2 | I-1365: Ac-PL3-Asp-Npg-B5-Asp-3COOHF-Aib-Ala-Phe-[m5Meb]Cys-PyrS2-3Thi-BztA-Cys-Ala-NH2 (peptide) | 42
